Experimental findings from ChEMBL document CHEMBL4613266, “Discovery and Structure Relationships of Salicylanilide Derivatives as Potent, Non-acidic P2X1 Receptor Antagonists” (J Med Chem, 2020) are described below.

Each structure is given as a SMILES string.

In experiment [1] the target is T1, P2X purinoceptor 1 (Homo sapiens) (UniProt P51575).
T1 sequence (whole entry): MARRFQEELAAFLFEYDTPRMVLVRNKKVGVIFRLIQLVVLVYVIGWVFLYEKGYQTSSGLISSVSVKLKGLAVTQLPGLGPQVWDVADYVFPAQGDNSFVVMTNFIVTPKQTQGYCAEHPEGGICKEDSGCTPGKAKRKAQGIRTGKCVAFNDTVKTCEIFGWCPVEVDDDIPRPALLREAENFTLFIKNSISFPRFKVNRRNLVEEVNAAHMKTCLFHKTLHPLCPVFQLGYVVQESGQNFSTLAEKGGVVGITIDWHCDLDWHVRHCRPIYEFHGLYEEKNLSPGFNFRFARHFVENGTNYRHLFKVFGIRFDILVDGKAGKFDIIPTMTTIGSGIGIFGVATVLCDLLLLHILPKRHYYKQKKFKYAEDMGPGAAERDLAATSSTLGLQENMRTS
Nature of the experiment: Antagonist activity at non-desensitizing human P2X1 receptor ( P2X2/P2X1 chimera) expressed in human 1321N1 cells assessed as inhibition of ATP-induced calcium influx at 10 uM pre-incubated for 30 mins before ATP stimulation by FLIPR assay relative to control. Type of experiment: cell-based.

The target in experiment [2] is T2, P2X purinoceptor 2 (Homo sapiens) (UniProt Q9UBL9).
T2 sequence (whole entry): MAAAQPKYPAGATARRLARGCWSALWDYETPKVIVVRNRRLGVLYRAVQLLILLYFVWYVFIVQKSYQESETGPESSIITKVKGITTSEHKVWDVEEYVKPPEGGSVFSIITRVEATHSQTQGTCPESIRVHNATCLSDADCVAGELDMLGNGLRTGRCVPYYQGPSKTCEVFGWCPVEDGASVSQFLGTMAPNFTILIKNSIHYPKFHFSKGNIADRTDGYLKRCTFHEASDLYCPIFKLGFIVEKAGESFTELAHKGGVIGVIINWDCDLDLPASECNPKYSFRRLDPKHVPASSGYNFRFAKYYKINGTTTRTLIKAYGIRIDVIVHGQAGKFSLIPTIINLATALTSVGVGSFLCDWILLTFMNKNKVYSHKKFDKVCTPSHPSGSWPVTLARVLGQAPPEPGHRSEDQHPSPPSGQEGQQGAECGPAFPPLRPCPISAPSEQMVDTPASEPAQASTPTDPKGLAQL
Nature of the experiment: Antagonist activity at human P2X2 receptor expressed in human 1321N1 cells assessed as inhibition of ATP-induced cytosolic calcium influx at 10 uM preincubated for 30 mins followed by ATP addition by Fluo-4 AM dye-based fluorescence assay relative to control. Type of experiment: cell-based.

In general, inhibition refers to the relative decrease from the control value, in per cent. Turning to `O=C(Nc1cc(C(F)(F)F)cc(C(F)(F)F)c1)c1ccc2ccccc2c1O`, the inhibition was 105% in experiment [1] and 6% in experiment [2].
